In patent US20020049162A1, “Methods for inhibiting smooth muscle cell proliferation” (priority 2000, published 2002):

Test system: Human coronary artery smooth muscle cells
Assay: Inhibition of human smooth muscle cell proliferation (cell counts, growth rate vs wells without peptide)
Format: cell-based

Substance: AIII: AII(2-8), SEQ ID NO:2 (RVYIHPF) [reference compound]
- Effect on proliferation of human smooth muscle cells (in words) (compared with wells that did not contain peptide): increased the proliferation
- % Control Proliferation Day 1 vs Day 4 (percentage of the control growth rate, Day 1 vs Day 4, values below 100 = inhibition, peptides 0.1-10 μg/ml, concentration not given): 121.6%
- % Control Proliferation Day 1 vs Day 7 (percentage of the control growth rate, Day 1 vs Day 7, values below 100 = inhibition, peptides 0.1-10 μg/ml, concentration not given): 136.4%
